The series can be described thus: in vivo. Conditions: mouse, po, mice, p.o. as salt in saline, deaths within two days. Here is the method:
Several groups of mice were treated with specific doses of compounds of formula (I) as orally administered salts in saline solution. After treatment of each group with a different dose of a specific compound the number of mice dead in each group within two days was noted. […] The LD50 value is the lethal dose required to kill half of the treated animals.
The procedure was repeated with other groups of mice for other compounds of formula (I).

For `CCCCCC(C)(C)NC(=O)CN.O=C(O)CCC(=O)O` [Example 2, hydrogen succinate, 2-Amino-N-(1,1-dimethylhexyl)acetamide hydrogen succinate], the 50% lethal dose (LD50) (commonly the dose at which mortality reaches 50%) at 48 h was 571 mg/kg.

These data come from patent US4277498A, “Amides” (Burroughs Wellcome Co., priority 1976, dated 1981).
